{"sequences": {"note": "By UniProt entry, the sequences of proteins in these tests, tags left out. Residues count along the entry.", "UniProt P07204, 19-515": "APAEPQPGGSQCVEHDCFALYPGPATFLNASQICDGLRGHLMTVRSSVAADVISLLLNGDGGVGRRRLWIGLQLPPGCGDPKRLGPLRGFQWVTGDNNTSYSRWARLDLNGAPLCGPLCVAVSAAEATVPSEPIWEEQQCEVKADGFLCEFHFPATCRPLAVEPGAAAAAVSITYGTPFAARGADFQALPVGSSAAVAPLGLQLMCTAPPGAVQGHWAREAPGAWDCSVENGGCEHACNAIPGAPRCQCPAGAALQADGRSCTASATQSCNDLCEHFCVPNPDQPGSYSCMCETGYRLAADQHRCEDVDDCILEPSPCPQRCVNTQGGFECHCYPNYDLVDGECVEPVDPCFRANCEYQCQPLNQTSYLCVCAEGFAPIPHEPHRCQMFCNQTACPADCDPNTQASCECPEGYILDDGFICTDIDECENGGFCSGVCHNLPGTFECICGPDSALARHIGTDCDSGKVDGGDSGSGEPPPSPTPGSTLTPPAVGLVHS"}, "source": "patent US5585095A", "about": "“Method to enhance thrombomodulin APC generation using cationic proteins” (Regents of the University of Minnesota, priority 1993, dated 1996)", "biological_target": "T1, GAG+ TM (Homo sapiens, UniProt P07204)", "T1 construct": "encompassing the entire extracellular domain ([amino acids 1-497], which includes the serine 492 glycosylation site); host or cells: Chinese Hamster Ovary cells", "experiment": "APC generation by recombinant GAG+ TM with thrombin and protein C (chromogenic S-2366)", "assay_type": "biochemical", "conditions": "conditions of Example 1, GAG+ TM, FIG. 4", "method": "Human PF4 was purified from outdated platelets by THR stimulation, NH4 SO4 precipitation, heparin affinity chromatography, and Scphadex G-100 chromatography using a technique described in T. F. Deuel et al., Proc. Natl. Acad. Sci. USA, 74, 2256-2258 (1977), which is incorporated herein by reference. Dose-response studies were then performed with increasing amounts of PF4 to assay its effect upon the ability of three TM preps to generate APC from protein C. […]\nFor each type of TM, 2 nM TM and 500 nM protein C were incubated together in the presence of 1 mM (i.e., physiologic) Ca^2+ with or without PF4, and the generation of APC initiated by the addition of 2 nM THR in 50 mM Tris, 100 mM NaCl, pH 7.4 at 37° C. […] APC was quantified spectrophotometrically with the chromogenic substrate S-2366 (obtained from Kabi Vitrum, Franklin, Ohio). […] Values obtained from these controls were then subtracted from the rates measured for wells containing monolayers. […]"}
{"substance": "albumin: anionic protein", "values": [{"measurement": "acceleratory effect upon APC generation by thrombomodulin (GAG+ TM)", "result": "no such effect"}]}
